The list is not random: actives were taken first. Their share in the collection is about 2.8%.
esBAF inh: inhibitors of esBAF chromatin remodeling in mouse ES cells; Bmi1-luciferase knock-in reporter, 24 h; 100% = twice the neutral-well signal; AID 602393; 350,000 tested, 2% active; reporter increase, % at 12.5 µM; in the data active = activation above about 40%;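 note: 0% = median of the plate's neutral control wells and 100% = double that signal; a rise in the Bmi1 reporter signal indicates esBAF inhibition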
E-selectin induc: E-selectin induction on HUVECs. P16581. HUVEC E-selectin immunofluorescence imaging; normalized: neutral wells 0, TNF-alpha wells 100. activation, % at 7.58 µM. 260,000 tested, 0.37% active. AID 686992;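 active = mean E-selectin-positive cell signal at least 10% of the positive control, reached in at least 60% of replicates, without over 20% cell loss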
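Test system: HUVEC | Signal: Immunofluorescence imaging | Read-out: Percent E-selectin-positive cells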
UUG fidelity: modulators of yeast start codon fidelity, primary screen, whole organism, S. cerevisiae, single point, plate reader. S. cerevisiae UUG-firefly luciferase reporter, luminescence/redox ratio. activity score, % at 18.7 µM. hit rate 0.13% among 350,000;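 active = replicate mean at a twofold rise or more, about +100% in these data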;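 also: firefly luciferase made from a UUG start codon reports start codon fidelity; reporter light over untreated wells divided by growth signal over untreated wells; some hits fall short of that in this replicate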
Statin myotox sup: suppressors of simvastatin-induced myotoxicity in C2C12 myotubes | ATP luminescence, 48 h; scaled: DMSO 0, geranylgeraniol control 100 | 330,000 tested, 0.78% active | AID 602340 | rescue of ATP level, % at 7.49 µM;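 active = mean ATP rescue above about 67%, or every replicate alone reaching that limit, limit read from the data, passing the limit was not always enough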;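 note: myotubes were challenged with 10 µM simvastatin during compound exposure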
PGC1a acetyl inh: modulators of PGC1a acetylation; U2OS PGC1a acetylation, AlphaScreen anti-acetyl-lysine; with virally co-expressed GCN5 acetyltransferase; AID 651687; inhibition, % at 15.6 µM; 350,000 tested, 0.17% active;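 active = every replicate shows inhibition of at least 40%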;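 note: 0% = neutral control wells and 100% = positive control wells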
PglD DTNB: inhibitors of Campylobacter jejuni PglD acetyltransferase; inhibition, % at 12.5 µM; purified PglD enzyme, DTNB colorimetric CoA detection; 360,000 tested, 0.098% active; in the data active = inhibition above about 16%, passing the limit was not always enough
* = called active by the depositor; nt = not tested or not shown; ! = a repeat was not active.

cpd	smiles	esBAF inh	E-selectin induc	UUG fidelity
1	C[C@@H]1CCCCO[C@@H](CN(C)C(=O)CCC(F)(F)F)[C@H](C)CN([C@@H](C)CO)C(=O)c2cc(NC(=O)NC3CCCCC3)ccc2O1	5	1	21
2	Cc1ccc(C(=O)CSc2nnc(-c3ccco3)n2Cc2ccccc2)cc1	28	nt	-36
3	CCn1c(SCC(=O)NCc2cccs2)nnc1-c1ccco1	-1	nt	-9
4	CCn1c(SCC(=O)NCc2cccs2)nnc1-c1ccncc1	-3	nt	-9
5	O=C(CSc1nnc(-c2ccco2)n1Cc1ccccc1)c1ccccc1	44*	nt	-7
6	NC(=O)NC(=O)CSc1nnc(-c2ccco2)n1Cc1ccccc1	-5	nt	-16
7	COc1ccccc1-c1cnc2c(c1)C(=O)N([C@H](C)CO)C[C@H](C)[C@H](CN(C)C(=O)c1ccncc1)O2	-1	0	-9
8	CCNC(=O)C[C@H]1CC[C@H](NC(=O)NC2CCCCC2)[C@@H](CO)O1	-7	1	17
9	COc1ccc(S(=O)(=O)Nc2ccc3c(c2)C(=O)N([C@@H](C)CO)C[C@H](C)[C@H](CN(C)C(=O)Nc2ccc4c(c2)OCO4)O3)cc1	3	0	2
10	Cc1noc(C)c1S(=O)(=O)Nc1ccc2c(c1)C(=O)N([C@@H](C)CO)C[C@H](C)[C@H](CN(C)Cc1ccc3c(c1)OCO3)O2	3	401*	-13
11	C[C@@H]1CN([C@H](C)CO)C(=O)CCCn2nncc2CO[C@@H]1CN(C)S(=O)(=O)c1cn(C)cn1	-2	0	4
12	C[C@H]1CN([C@@H](C)CO)C(=O)c2cc(NS(=O)(=O)c3cn(C)cn3)ccc2O[C@H]1CN(C)Cc1ccncc1	-2	-5	-19

cpd	Statin myotox sup	PGC1a acetyl inh	PglD DTNB
1	nt	4	-1
2	83*	-4	-1
3	105*	6	-4
4	10	7	4
5	41	3	4
6	-5	9	11
7	15	-7	nt
8	-6	-7	1
9	nt	-9	nt
10	76*	16	1
11	10	101*!	-4
12	-28	3	8

Individual results from the results shown:
Result for `C[C@@H]1CN([C@H](C)CO)C(=O)CCCn2nncc2CO[C@@H]1CN(C)S(=O)(=O)c1cn(C)cn1` in esBAF inh: -2
Result for `C[C@@H]1CCCCO[C@@H](CN(C)C(=O)CCC(F)(F)F)[C@H](C)CN([C@@H](C)CO)C(=O)c2cc(NC(=O)NC3CCCCC3)ccc2O1` in esBAF inh: 5

Shown as a hit in esBAF inh, among the entries above:
entry | smiles | esBAF inh | UUG fidelity | PGC1a acetyl inh | PglD DTNB
5 | O=C(CSc1nnc(-c2ccco2)n1Cc1ccccc1)c1ccccc1 | 44* | -7 | 3 | 4

More entries follow:
cpd	smiles	esBAF inh	E-selectin induc	UUG fidelity
13	Cc1noc(C)c1S(=O)(=O)Nc1ccc2c(c1)C(=O)N([C@H](C)CO)C[C@H](C)[C@@H](CN(C)Cc1ccc3c(c1)OCO3)O2	4	1	-7
14	CNC[C@H]1Oc2ccc(N(C)C)cc2C(=O)N([C@@H](C)CO)C[C@H]1C	-4	129*	4
15	C[C@H]1CN([C@@H](C)CO)C(=O)c2cc(NS(=O)(=O)c3cn(C)cn3)ccc2O[C@@H]1CN(C)Cc1ccncc1	1	49*	-14
16	C[C@H]1CN([C@@H](C)CO)C(=O)c2cc(-c3cccc(C(=O)N(C)C)c3)cnc2O[C@@H]1CN(C)S(=O)(=O)c1ccccc1	-2	0	6
17	CO[C@@H]1CN(C)C(=O)c2ccc(NC(=O)Nc3cccc(F)c3)cc2OC[C@@H](C)NC[C@@H]1C	-2	0	nt
18	C[C@@H]1CN([C@H](C)CO)C(=O)c2cc(N(C)C)ccc2O[C@H]1CN(C)S(=O)(=O)c1cn(C)cn1	-2	63*	-18
19	C[C@@H]1CN([C@@H](C)CO)C(=O)c2cc(N(C)C)ccc2O[C@@H]1CN(C)S(=O)(=O)c1cn(C)cn1	-4	-10	-3
20	Cc1noc(C)c1S(=O)(=O)Nc1ccc2c(c1)C(=O)N([C@H](C)CO)C[C@@H](C)[C@H](CN(C)Cc1ccncc1)O2	-1	57*	-6
21	CNC(=O)C[C@@H]1CC[C@@H]2[C@@H](COc3ccc(NC(=O)c4cc(F)cc(F)c4)cc3C(=O)N2C)O1	2	0	nt
22	Cc1ccc(S(=O)(=O)OCCC2=CC(=O)CCN2Cc2ccccc2)cc1	13	0	8
23	O=S(=O)(N/N=C1/CC(c2ccccc2)Oc2ccccc21)c1ccc(Br)cc1 (stereo not drawn)	4	nt	-2
24	Cc1ccc(S(=O)(=O)N/N=C2/CC(c3ccccc3)Oc3ccccc32)cc1[N+](=O)[O-] (stereo not drawn)	41*	nt	-12

cpd	Statin myotox sup	PGC1a acetyl inh	PglD DTNB
13	3	31	-1
14	20	8	4
15	20	8	5
16	8	-1	0
17	-20	-6	-1
18	2	2	2
19	-37	2	3
20	nt	-2	6
21	-3	8	-2
22	21	63*	0
23	nt	nt	-6
24	-2	9	-4

High-throughput results deposited in PubChem BioAssay by Broad Institute.
